The values below are quoted from earlier work in patent publication US6825040B2, “Method of using a vapor acid test kit” (Mainstream Engineering Corporation, priority 1995, dated 2004).

What is called pKa is the negative logarithm of the acid dissociation constant.

The conditions of series [1]: pH range of the indicator colour change.
The conditions of series [2]: negative log of the dissociation equilibrium constant of the indicator.

Regarding α-Naphtholbenzein, in series [1], the “pH Range” value is 9.0 to 11.0.
Take “Diphenylamino-p-benzene sodium sulfonate”: the pKa in series [2] was 2.
In the case of 2,8-Dinitrophenol, in series [1], the “pH Range” value is 2.4 to 4.0. Also, the pKa in series [2] was 3.69.
In the case of “5-(p-Nitrophenylazo)-salicylic acid. Na salt”, in series [1], the “pH Range” value is on record as 10.0 to 12.0. The pKa in series [2] is 11.2.
